Results reported in paper PMC13482819 (2026).

B1: HA-tagged STING (wild type) [human] / Myc-tagged TBK1 [human] (parent complex)
chain 1: MPHSSLHPSIPCPRGHGAQKAALVLLSACLVTLWGLGEPPEHTLRYLVLHLASLQLGLLLNGVCSLAEELRHIHSRYRGSYWRTVRACLGCPLRRGALLLLSIYFYYSLPNAVGPPFTWMLALLGLSQALNILLGLKGLAPAEISAVCEKGNFNVAHGLAWSYYIGYLRLILPELQARIRTYNQHYNNLLRGAVSQRLYILLPLDCGVPDNLSMADPNIRFLDKLPQQTGDHAGIKDRVYSNSIYELLENGQRAGTCVLEYATPLQTLFAMSQYSQAGFSREDRLEQAKLFCRTLEDILADAPESQNNCRLIAYQEPADDSSFSLSQEVLRHLRQEEKEEVTVGSLKTSAVPSTSTMSQEPELLISGMEKPLPLRTDFS
chain 2: MQSTSNHLWLLSDILGQGATANVFRGRHKKTGDLFAIKVFNNISFLRPVDVQMREFEVLKKLNHKNIVKLFAIEEETTTRHKVLIMEFCPCGSLYTVLEEPSNAYGLPESEFLIVLRDVVGGMNHLRENGIVHRDIKPGNIMRVIGEDGQSVYKLTDFGAARELEDDEQFVSLYGTEEYLHPDMYERAVLRKDHQKKYGATVDLWSIGVTFYHAATGSLPFRPFEGPRRNKEVMYKIITGKPSGAISGVQKAENGPIDWSGDMPVSCSLSRGLQVLLTPVLANILEADQEKCWGFDQFFAETSDILHRMVIHVFSLQQMTAHKIYIHSYNTATIFHELVYKQTKIISSNQELIYEGRRLVLEPGRLAQHFPKTTEENPIFVVSREPLNTIGLIYEKISLPKVHPRYDLDGDASMAKAITGVVCYACRIASTLLLYQELMRKGIRWLIELIKDDYNETVHKKTEVVITLDFCIRNIEKTVKVYEKLMKINLEAAELGEISDIHTKLLRLSSSQGTIETSLQDIDSRLSPGGSLADAWAHQEGTHPKDRNVEKLQVLLNCMTEIYYQFKKDKAERRLAYNEEQIHKFDKQKLYYHATKAMTHFTDECVKKYEAFLNKSEEWIRKMLHLRKQLLSLTNQCFDIEEEVSKYQEYTNELQETLPQKMFTASSGIKHTMTPIYPSSNTLVEMTLGMKKLKEEMEGVVKELAENNHILERFGSLTMDGGLRNVDCL

Variants of: B1
Assay: co-immunoprecipitation (IP: HA, IB: Myc) with band densitometry; HEK293T cells, co-expression
chain 1 Y245E gave a ratio to parent of 7.3.
Work on chain 1 Y314E yielded a ratio to parent of 6.4.
